These are literature values, as cited in patent US7229999B2, “Pyridine-3-carboxamide derivatives as CB1 inverse agonists” (Hoffmann-La Roche Inc., priority 2005, dated 2007).

Protein sequences, listed by entry. Tags and fused reporters are not part of them.
UniProt P47746, whole entry: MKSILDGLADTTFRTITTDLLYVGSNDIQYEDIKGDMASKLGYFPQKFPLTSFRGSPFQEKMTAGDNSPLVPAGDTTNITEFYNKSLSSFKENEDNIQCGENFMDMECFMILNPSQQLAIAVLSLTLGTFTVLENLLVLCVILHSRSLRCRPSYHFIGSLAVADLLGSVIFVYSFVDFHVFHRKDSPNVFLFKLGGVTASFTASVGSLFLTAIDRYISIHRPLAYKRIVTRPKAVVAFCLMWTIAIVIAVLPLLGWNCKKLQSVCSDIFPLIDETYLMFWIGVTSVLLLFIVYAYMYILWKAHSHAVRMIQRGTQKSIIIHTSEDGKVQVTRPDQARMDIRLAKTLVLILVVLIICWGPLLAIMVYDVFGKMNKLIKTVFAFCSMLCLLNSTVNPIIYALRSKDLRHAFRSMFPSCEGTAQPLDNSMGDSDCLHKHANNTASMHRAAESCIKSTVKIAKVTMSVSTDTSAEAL

The structures appear in SMILES notation.

This data set addresses CB1 receptor (Mus musculus, UniProt P47746). To be noted: wild-type versus CB1 receptor knockout mice; cited from earlier work.

With `Cc1c(C(=O)NN2CCCCC2)nn(-c2ccc(Cl)cc2Cl)c1-c1ccc(Cl)cc1` [SR 141716], the food intake result is reported as “reduces food intake in wild-type but not knockout mice”.
